Earlier results, collected in patent publication US20220151944A1, “FLUOROURACIL-CONTAINING FORMULATIONS” (SISAF LIMITED, priority 2019, published 2022).

Conditions: 25° C.

In the case of orthosilicic acid, the pKa1 is given as 9.84 and the pKa2 is given as 13.2.
